Patent US20190231757A1, “COMBINATION OF SPLEEN TYROSINE KINASE INHIBITORS AND OTHER THERAPEUTIC AGENTS” (Takeda Pharmaceutical Company Limited, priority 2016, published 2019)

Experiment: Body weight and tolerability, WSU-Luc ibrutinib study (Example 12)
Type: in vivo, mouse
Details: Compound A 60 mg/kg PO QD 21 d; ibrutinib 20 mg/kg PO QD 21 d; alone or combined
Method: Experimental design: Female CB17 SCID mice (Taconic Biosciences; weight at treatment start was about 18 g) were inoculated subcutaneously in the flank (cell suspension) with 4.0×10^6 WSU-Luc cells. Tumor growth was monitored with vernier calipers. Tumor volume was calculated using the formula V=W^2×L/2, where V=volume, W=width and L=length of the tumor. When the mean tumor volume reached approximately 190 mm^3, the animals were randomized into treatment groups (n=8/group). […] Tumor growth and body weight were measured twice per week. Tumor growth inhibition and body weight change were calculated on Day 20 of treatment.

In the case of C=CC(=O)N1CCC[C@@H](n2nc(-c3ccc(Oc4ccccc4)cc3)c3c(N)ncnc32)C1 [ibrutinib], the “% BW Change (Day Maximum)” value is reported as 10.4 (20) %.
